Earlier results on 1 molecule are cited in US10167256B2, “Psychotrophic agents and uses thereof” (LB PHARMACEUTICALS INC., priority 2016, dated 2019).

Amino acid sequences for entries named in this document (tags omitted). Chains listed by the source or under a name are the forms on record and can include a tag or linker.
UniProt P34969, other isoform, or with tags, fused parts or gaps: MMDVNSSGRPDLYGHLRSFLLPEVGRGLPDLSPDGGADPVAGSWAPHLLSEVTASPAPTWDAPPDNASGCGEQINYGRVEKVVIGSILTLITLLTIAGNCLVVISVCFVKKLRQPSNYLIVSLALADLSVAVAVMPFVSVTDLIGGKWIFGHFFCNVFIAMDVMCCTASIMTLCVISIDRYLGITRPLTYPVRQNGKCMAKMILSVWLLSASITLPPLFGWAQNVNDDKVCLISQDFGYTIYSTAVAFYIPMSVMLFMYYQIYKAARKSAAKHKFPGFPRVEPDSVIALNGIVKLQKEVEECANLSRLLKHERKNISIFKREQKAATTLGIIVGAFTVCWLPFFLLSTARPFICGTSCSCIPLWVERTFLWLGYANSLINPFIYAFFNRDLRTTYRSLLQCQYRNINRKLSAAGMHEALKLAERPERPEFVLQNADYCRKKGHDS

For the data set, the target named is HT7a receptor (Homo sapiens (Human), UniProt P34969). To be noted: cited from earlier work.

With `CCN1CCCC1CNC(=O)c1cc(S(=O)(=O)CC)c(N)cc1OC` (stereo not shown) [Amisulpride, 4-amino-N-(((1-ethyl-2-pyrrolidinyl)methyl)-5-(ethylsulfonyl))-2-methoxybenzamide], the Ki result is reported as “low double digit”.
